# Binding of CDR-mutated scFvs to a peptide of the spike HR2 region

Values reported by Engelhart et al. 2022, doi:10.1038/s41597-022-01779-4 (FLAb copy).

All variants were tested on one target, the spike HR2 peptide PDVDLGDISGINAS (SARS-CoV-2).

Parent: Ab-14, a human scFv built as VH, the linker GGGGSGGGGSGGGGS, VL. Only the CDRs of the heavy chain vary.
VH: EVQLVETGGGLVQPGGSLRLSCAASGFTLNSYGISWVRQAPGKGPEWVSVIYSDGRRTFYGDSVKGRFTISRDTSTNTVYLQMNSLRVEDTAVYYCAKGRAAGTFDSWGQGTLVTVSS
VL: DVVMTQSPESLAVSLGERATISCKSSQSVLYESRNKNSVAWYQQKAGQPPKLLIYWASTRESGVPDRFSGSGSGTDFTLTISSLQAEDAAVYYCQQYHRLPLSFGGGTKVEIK

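The parent was found by panning a naive human phage display library on the peptide. Library AAYL49 holds single substitutions and randomly drawn double and triple substitutions in the CDRs. The assay is AlphaSeq: two haploid yeast populations carry antibody and antigen on their surface. Binding brings cells together so that they mate, and sequencing counts the barcode pairs among the diploids. Read counts were normalised to the haploid input and turned into Kd by a linear fit to BCL2-family pairs of known affinity, for each replicate. Mating was done three times.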

Changes read parent residue, position, new residue, counted from the first residue of the VH shown. Values are log10 of the apparent Kd in nM; lower means stronger binding. Averages over replicates are reported, and they cover detected replicates only. "ND" marks a missing value. The strain was present, yet no cells mated with the target were sequenced in that replicate, which points to weak or no binding. For reference, the parent read 0.65 as the reference entry and 4.11 (one replicate of three) as a member of this library. Background: pairings of library AAYL49 with three empty control strains gave a value in 15% of cases (median 4.06, 5th percentile 2.83). Values in that range, when seen in few replicates, are hard to tell from nonspecific mating. Also given: how often the same scFv was detected with the empty control strains, with their mean in brackets.

| # | changes | replicates, log10 nM | mean log10 Kd (nM) | empty controls |
|---|---|---|---|---|
| 1 | L29S K65T A101M | 4.18 / ND / ND | 4.18 | 1/9 (4.11) |
| 2 | D54V T58S K65V | ND / ND / ND | ND | 1/9 (2.69) |
| 3 | I34N S35P S107Y | ND / ND / ND | ND | 1/9 (4.17) |
| 4 | S31V S35H S107I | ND / 4.08 / 4.74 | 4.41 | 2/9 (4.09) |
| 5 | G26M S53E S63N | ND / ND / ND | ND | 0/9 |
| 6 | G55D R56Q R57N | 5.82 / ND / 3.72 | 4.77 | 2/9 (4.25) |
| 7 | F27L T104M D106Q | 1.92 / 1.33 / 1.66 | 1.64 | 1/9 (3.51) |
| 8 | S35A R56C D62A | 6.21 / ND / ND | 6.21 | 2/9 (4.12) |
| 9 | F27H T28V D106S | ND / ND / ND | ND | 1/9 (3.29) |
| 10 | G26T S35I S53D | 4.51 / ND / ND | 4.51 | 3/9 (4.17) |
| 11 | G26M D54T S107E | 5.42 / ND / 4.17 | 4.79 | 1/9 (2.97) |
| 12 | G26Q I34W R100K | ND / 4.53 / ND | 4.53 | 5/9 (3.74) |
| 13 | S31Y V50H R56F | 4.30 / ND / ND | 4.30 | 3/9 (3.47) |
| 14 | K65F R100M D106A | 4.08 / 4.48 / ND | 4.28 | 3/9 (4.31) |
| 15 | N30C A102M F105Q | ND / 3.48 / ND | 3.48 | 1/9 (4.54) |
| 16 | L29P T58S G103H | ND / 4.10 / ND | 4.10 | 0/9 |
| 17 | G26E G103A F105P | ND / ND / ND | ND | 0/9 |
| 18 | L29I G99I A101L | ND / ND / ND | ND | 0/9 |
| 19 | I34G S35G R56P | ND / ND / ND | ND | 0/9 |
| 20 | D54F S63F D106N | ND / ND / ND | ND | 3/9 (5.14) |
| 21 | S53D Y60F V64Q | ND / ND / ND | ND | 2/9 (4.30) |
| 22 | S53T R56P | ND / ND / ND | ND | 1/9 (3.41) |
| 23 | I34A R100I G103P | 3.50 / ND / ND | 3.50 | 2/9 (4.83) |
| 24 | Y32E G55D G99K | ND / ND / ND | ND | 0/9 |
| 25 | S63D A101S S107W | 1.79 / 1.68 / 1.68 | 1.72 | 2/9 (3.45) |
| 26 | S31D S35Q S107Y | 4.59 / 4.05 / 4.70 | 4.45 | 4/9 (4.33) |
| 27 | S31F Y32N D62T | ND / 5.66 / 4.67 | 5.16 | 6/9 (4.39) |
| 28 | A101V G103F | ND / ND / ND | ND | 2/9 (3.25) |
| 29 | I34N Y52A A101Q | 3.69 / 3.05 / ND | 3.37 | 1/9 (2.70) |
| 30 | Y32M D54T F105R | ND / ND / ND | ND | 1/9 (3.01) |
| 31 | D54C S63H A102C | ND / ND / ND | ND | 2/9 (3.12) |
| 32 | V50H K65Y | ND / 2.63 / ND | 2.63 | 2/9 (3.43) |
| 33 | N30Y R100A S107H | 2.23 / 2.43 / ND | 2.33 | 2/9 (3.99) |
| 34 | G55T T104N D106F | ND / ND / ND | ND | 0/9 |
| 35 | G26Q A101H | 1.36 / 1.58 / 1.43 | 1.46 | 7/9 (4.32) |
| 36 | N30P V64G S107R | ND / ND / ND | ND | 0/9 |
| 37 | D54L G99N | 5.26 / ND / ND | 5.26 | 0/9 |
| 38 | L29H S53E Y60W | ND / ND / ND | ND | 1/9 (4.32) |
| 39 | G33M V50K F59K | ND / ND / ND | ND | 2/9 (4.16) |
| 40 | R56N V64G R100S | ND / ND / ND | ND | 0/9 |
| 41 | G99R G103R T104H | ND / ND / 3.57 | 3.57 | 2/9 (3.88) |
| 42 | N30H T58D D106I | ND / ND / ND | ND | 0/9 |
| 43 | T28H V50S | ND / 4.46 / 4.84 | 4.65 | 2/9 (4.21) |
| 44 | G26H D54T R57Q | ND / ND / ND | ND | 0/9 |
| 45 | F27H Y52Q D54C | 5.05 / ND / ND | 5.05 | 6/9 (4.61) |
| 46 | R57F F59Y V64W | ND / 3.46 / 5.22 | 4.34 | 4/9 (4.70) |
| 47 | S63C R100M | 2.07 / 2.85 / 2.48 | 2.47 | 0/9 |
| 48 | S35A I51V S53H | ND / ND / ND | ND | 1/9 (3.41) |
| 49 | G26R T28V S107E | 1.78 / 1.64 / 1.89 | 1.77 | 1/9 (3.49) |
| 50 | G26E N30V D54T | ND / ND / ND | ND | 0/9 |